Molecular target: T1, FPR1 (FK506-binding protein 1, P20081) (Saccharomyces cerevisiae, UniProt P20081)
T1 construct: Cell lysates from at least three independent biological replicates were aliquoted in equivalent volumes containing 100 µg of proteome sample; endogenous in cells; host or cells: S. cerevisiae wild type (Euroscarf), cryo-milled lysate
T1 sequence (P20081 1-114): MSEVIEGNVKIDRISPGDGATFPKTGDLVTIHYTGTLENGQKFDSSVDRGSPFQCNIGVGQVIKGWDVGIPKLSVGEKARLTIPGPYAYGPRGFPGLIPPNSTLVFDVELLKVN
Test: LiP-Quant, S. cerevisiae lysates (wild type)
Settings: Yeast WT; FPR1 peptide _TGDLVTIH_

CO[C@H]1C[C@@H]2CC[C@@H](C)[C@@](O)(O2)C(=O)C(=O)N2CCCC[C@H]2C(=O)O[C@H]([C@H](C)C[C@@H]2CC[C@@H](O)[C@H](OC)C2)CC(=O)[C@H](C)/C=C(\C)[C@@H](O)[C@@H](OC)C(=O)[C@H](C)C[C@H](C)/C=C/C=C/C=C/1C [Rapamycin]
LiP Score: 3.070
